Experimental data reported in ChEMBL document CHEMBL3739358 (J Med Chem, 2015).
pEC50: −log10 of the molar value.

Protein sequences, listed by entry. Tags and fused reporters are not part of them.
UniProt P14416, whole entry: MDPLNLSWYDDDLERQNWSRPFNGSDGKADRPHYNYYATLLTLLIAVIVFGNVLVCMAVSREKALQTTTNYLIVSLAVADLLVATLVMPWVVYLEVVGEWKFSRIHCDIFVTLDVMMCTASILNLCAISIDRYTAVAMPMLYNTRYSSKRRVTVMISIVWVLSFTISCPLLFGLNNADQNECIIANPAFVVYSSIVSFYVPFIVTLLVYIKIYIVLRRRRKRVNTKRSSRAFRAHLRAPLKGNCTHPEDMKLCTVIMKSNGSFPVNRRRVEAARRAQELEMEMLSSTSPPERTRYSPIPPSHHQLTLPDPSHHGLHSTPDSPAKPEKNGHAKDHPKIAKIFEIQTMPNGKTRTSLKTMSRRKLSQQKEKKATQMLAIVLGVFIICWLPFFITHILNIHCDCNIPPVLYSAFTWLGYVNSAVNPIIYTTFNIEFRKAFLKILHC

Target: D(2) dopamine receptor (Homo sapiens, UniProt P14416)
Experiment: Agonist activity at human D2 receptor expressed in CHO cells by [35S]GTPgammaS binding assay
Assay type: functional, cell-based

Compound: CCCN1CCC[C@@H](c2cccc(O)c2)C1 [PRECLAMOL]
- pEC50: 6.79
